Results taken from patent EP4782448A1, “SUBSTITUTED PYRIDOTRIAZOLE COMPOUND, AND PREPARATION METHOD THEREFOR AND USE THEREOF” (Origiant Pharmaceutical Co., Ltd., priority 2023, dated 2025).

Target: T1, RIPK1 Kinase (Homo sapiens, UniProt Q13546)
T1 construct: purchased Eurofins (Kinase Profiler service)
T1 sequence (Q13546 1-671): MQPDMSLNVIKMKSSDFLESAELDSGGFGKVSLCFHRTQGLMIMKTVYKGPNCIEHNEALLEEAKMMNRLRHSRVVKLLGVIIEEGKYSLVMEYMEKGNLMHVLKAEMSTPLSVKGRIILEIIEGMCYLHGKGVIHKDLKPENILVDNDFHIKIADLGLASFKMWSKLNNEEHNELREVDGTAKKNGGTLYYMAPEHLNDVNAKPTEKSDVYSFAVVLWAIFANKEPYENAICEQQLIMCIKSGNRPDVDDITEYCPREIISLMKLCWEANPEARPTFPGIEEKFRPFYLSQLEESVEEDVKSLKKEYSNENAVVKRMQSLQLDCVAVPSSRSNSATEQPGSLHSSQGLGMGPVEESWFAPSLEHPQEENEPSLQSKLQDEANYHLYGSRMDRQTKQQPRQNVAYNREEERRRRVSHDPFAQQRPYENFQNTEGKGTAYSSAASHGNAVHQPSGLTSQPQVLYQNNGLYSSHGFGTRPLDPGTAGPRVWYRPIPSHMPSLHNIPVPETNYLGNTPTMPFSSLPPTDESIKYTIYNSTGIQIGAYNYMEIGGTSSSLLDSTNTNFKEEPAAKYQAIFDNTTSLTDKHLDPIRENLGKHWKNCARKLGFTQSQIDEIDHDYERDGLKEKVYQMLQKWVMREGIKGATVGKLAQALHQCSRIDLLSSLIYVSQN
Assay: biochemical

Structure (SMILES) | IC50 [nM]
CCn1cc(C(=O)N[C@@H](C)c2ccc(F)cc2)c2cc(-c3ccn4nc(NC(=O)CN5CCOCC5)nc4c3)ccc21 [Compound 8] | 10 to 100
C[C@H](NC(=O)c1cn(C)c2ccc(-c3ccn4nc(NC(=O)CN5C6CCC5COC6)nc4c3)cc12)c1ccc(F)cc1 [Compound 73] | 10 to 100
